Test results published in patent US11760889B2, “Unsaturated fatty alcohol derivatives from natural oil metathesis” (priority 2012, dated 2023).

Assays:
[1] = Solubility evaluation: enhanced oil recovery (EOR); format: physicochemical; conditions: for Comments (appearance): 1 wt. % in 1% sodium chloride brine
Protocol: Samples are prepared in a 10% stock solution and evaluated at 1 wt. % with a brine concentration of 1% sodium chloride. Replicate experiments are performed at each temperature with each sample.

[2] = Water-soluble herbicide formulation testing (standard dilution test, emulsion stability); format: physicochemical; set-up: key: D = dispersable; S = soluble; I = insoluble
Protocol: Surfactant candidates for water soluble herbicide applications are examined as a replacement for the anionic, nonionic, or anionic/nonionic blend portion and compared to a known industry adjuvant standard for use in paraquat, a water soluble herbicide concentrate formulation. A standard dilution test is conducted whereby the concentrates are diluted in water to determine if solubility is complete.
The cylinder is stoppered and inverted ten times. Solubility is recorded as complete or incomplete. Cylinders are allowed to stand and the amount (in mL) and type of separation are recorded after 30 min., 1 h, 2 h, and 24 h. Results of the solubility testing appear in Table 3 below.
An eight to ten mole alkyl phenol ethoxylate surfactant (0.7 g) is added and vigorously mixed for 30 s. Test sample (0.7 g) is added and mixing resumes for 30 s.
Test sample (0.7 g) is added and vigorously mixed for 30 s. Sodium linear alkylbenzene sulfonate (“NaLAS,” 0.7 g) is added and mixing resumes for 30 s.

Substance	Overall performance (EOR solubility) [1]	Soluble? [1]	Comments (appearance) ([1]; 20.7 ° C.)	Comments (appearance) ([1]; 51.5 ° C.)	Comments (appearance) ([1]; 56.1 ° C.)	sol (solubility on dilution) [2]
3 Mole Ethoxylated C10 Alcohol, Ammonium Sulfate [A10-8]	Overall performance of A10-8: Equal to control	yes	clear, colorless	clear, colorless	clear, colorless	
15 Mole Ethoxylated C10 Alcohol, Sodium Sulfate [A10-18]						S
